Measured values reported in PubChem BioAssay AID833 (The Scripps Research Institute Molecular Screening Center, 2007).
The entries are a selection whose mix differs from that of the whole data set. The source made the active and inactive calls. No stated cut-off is given here; in the data, active means activation above about 15%; inactive means the rest.

Sequences of proteins named here, by UniProt entry; tags and fusion partners are left off.
UniProt O08726, whole entry: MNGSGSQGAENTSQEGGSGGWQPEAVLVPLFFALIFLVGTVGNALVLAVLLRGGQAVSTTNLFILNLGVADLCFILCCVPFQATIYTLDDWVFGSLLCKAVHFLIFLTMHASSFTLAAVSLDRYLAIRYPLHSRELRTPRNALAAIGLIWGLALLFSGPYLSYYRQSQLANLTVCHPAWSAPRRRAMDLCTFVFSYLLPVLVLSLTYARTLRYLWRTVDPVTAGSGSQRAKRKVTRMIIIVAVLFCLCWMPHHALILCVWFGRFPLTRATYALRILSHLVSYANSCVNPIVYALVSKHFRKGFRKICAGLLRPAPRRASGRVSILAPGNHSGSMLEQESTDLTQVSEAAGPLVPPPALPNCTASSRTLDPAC

Each compound was assayed against Galanin receptor type 2 (Rattus norvegicus) (UniProt O08726) (assay: activates the rat galanin receptor 2 (AID 833)). Details: cell-based GALR2 agonist screen; at 10 µM; stronger effect = higher value.
In the case of `O=[N+]([O-])C1([N+](=O)[O-])COCOC1`, the activation is reported as inactive: -8.45%.
